Data as given in patent US7361743B2 (Pfizer Inc, priority 2004, dated 2008).

Tested on: Staphylococcus aureus Smith
Test: Efficacy in murine S. aureus septicemia
Assay type: in vivo, ICR mice
Method: Efficacy studies were performed in an S. aureus murine septicemia model according to models published elsewhere (Goldstein, B. P., G. Candiani, T. M. Arain, G. Romano, I. Ciciliato, M. Berti, M. Abbondi, R. Scotti, M. Mainini, F. Ripamonti, and et al. 1995. Antimicrobial activity of MDL 63,246, a new semisynthetic glycopeptide antibiotic Antimicrob. Agents Chemother. 39:1580-1588; Misiek, M., T. A. Pursiano, F. Leitner, and K. E. Price 1973. Microbiological properties of a new cephalosporin, BL-S 339:7-(phenylacetimidoyl-aminoacetamido)-3-(2-methyl-1,3,4-thiadiazol-5-ylthio methyl)ceph-3-em-4-carboxylic acid Antimicrob. Agents Chemother. 3:40-48).
Compounds were dissolved in 2% Tween 80 for oral dosing or 0.9% NaCl solution for intravenous dosing. Compounds were administered at 1 hour after bacterial inoculation. Vancomycin or ampicillin were used as controls.
Male or female ICR mice weighing 22±2 g from MDS Pharma Services were used for the evaluation. Food and water was given ad libitum. Groups of 6 mice weighing […] were used for the experiment. […] Mortality was recorded once daily for 7 days following bacterial inoculation. […]
Male or female ICR mice weighing 22±2 g from MDS Pharma Services were used for the evaluation. […] Mortality was recorded once daily for 7 days following bacterial inoculation.

For `CCC[C@@H]1C[C@@H](C(=O)N[C@@H]([C@H]2O[C@H](SC)[C@H](O)[C@@H](O)[C@H]2O)[C@H](C)Cl)N(C)C1` [clindamycin, reference compound], the ED50 (iv, read-out: ED50, IV) was 1 to 1.41 mg/kg and the ED50 (po, read-out: ED50, PO) was 3.1 mg/kg.

Read-outs that look alike come from different tables or passages of the source.
